For this experiment, the target named is 5-hydroxytryptamine receptor 1A (Homo sapiens, UniProt P08908). Kind of experiment: Binding affinity to 5HT1A receptor.

Sequences of proteins named here, by UniProt entry; tags and fusion partners are left off.
UniProt P08908, whole entry: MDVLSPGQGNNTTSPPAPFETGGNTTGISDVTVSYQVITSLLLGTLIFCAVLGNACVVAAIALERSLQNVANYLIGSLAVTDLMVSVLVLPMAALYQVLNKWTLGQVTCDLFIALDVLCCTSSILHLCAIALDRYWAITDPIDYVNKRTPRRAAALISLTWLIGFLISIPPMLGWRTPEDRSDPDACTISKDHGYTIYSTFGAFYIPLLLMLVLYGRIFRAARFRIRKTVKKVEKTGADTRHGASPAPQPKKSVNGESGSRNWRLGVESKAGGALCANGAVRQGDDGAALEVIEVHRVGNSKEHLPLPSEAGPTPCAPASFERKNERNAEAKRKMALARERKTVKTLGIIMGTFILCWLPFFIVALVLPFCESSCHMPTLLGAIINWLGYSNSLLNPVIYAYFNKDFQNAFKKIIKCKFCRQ

The Ki is the dissociation constant of the complex between target and ligand, obtained from inhibition or displacement. Read a low Ki as a stronger hold on the target.

Turning to `OC(CCN1CCN(c2ccc(Cl)cc2)CC1)c1ccsc1` (stereo unspecified), the Ki is 2750 nM.

The values are drawn from ChEMBL document CHEMBL1781889, “A chemometric study of the 5-HT(1A) receptor affinities presented by arylpiperazine compounds” (Eur J Med Chem, 2008).
